Results as given in ChEMBL document CHEMBL1139709, “6-Hydroxy- and 6-methoxy-beta-carbolines as acetyl- and butyrylcholinesterase inhibitors” (Bioorg Med Chem Lett, 2006).

Protein sequences, listed by entry. Tags and fused reporters are not part of them.
UniProt P06276, whole entry: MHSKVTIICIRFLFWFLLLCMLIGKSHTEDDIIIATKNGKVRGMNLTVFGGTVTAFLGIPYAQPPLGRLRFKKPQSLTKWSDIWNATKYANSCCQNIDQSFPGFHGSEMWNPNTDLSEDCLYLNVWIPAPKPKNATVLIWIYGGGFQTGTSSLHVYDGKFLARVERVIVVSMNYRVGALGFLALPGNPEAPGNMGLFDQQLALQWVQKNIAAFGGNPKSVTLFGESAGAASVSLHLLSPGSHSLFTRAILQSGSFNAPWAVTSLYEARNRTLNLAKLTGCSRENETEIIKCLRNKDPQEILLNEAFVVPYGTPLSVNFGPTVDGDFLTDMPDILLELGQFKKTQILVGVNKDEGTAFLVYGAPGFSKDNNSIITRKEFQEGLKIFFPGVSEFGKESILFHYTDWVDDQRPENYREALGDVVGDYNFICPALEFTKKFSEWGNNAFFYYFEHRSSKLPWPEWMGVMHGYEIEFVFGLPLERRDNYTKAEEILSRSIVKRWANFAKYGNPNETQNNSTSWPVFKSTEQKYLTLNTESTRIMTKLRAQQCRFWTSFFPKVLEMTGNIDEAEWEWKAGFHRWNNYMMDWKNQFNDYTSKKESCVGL

Molecular target: Cholinesterase (Homo sapiens, UniProt P06276)
Experiment: Inhibition of BChE

Question: CCN(C)C(=O)Oc1cccc([C@H](C)N(C)C)c1 [RIVASTIGMINE] was tested. Which IC50 did it give?
Answer: The IC50 was 54 µM.
